# Tests used:
# [1] = test system: SKOV-3 human ovarian adenocarcinoma xenograft; test: SK-OV-3 human ovarian xenograft antitumor efficacy; type: in vivo, CB17 SCID mice; conditions: SK-OV-3 xenograft
# [2] = test system: OVCAR-5 human ovarian adenocarcinoma xenograft; test: OVCAR-5 human ovarian xenograft antitumor efficacy; type: in vivo, CB17 SCID mice; conditions: OVCAR-5 xenograft
# OVCAR-3 cancer cell line = test: MTT assay, cytostatic/cytotoxic effects, OVCAR-3
# OVCAR-5 cancer cell line = test: MTT assay, cytostatic/cytotoxic effects, OVCAR-5
# SK-OV-3 cancer cell line = test: MTT assay, cytostatic/cytotoxic effects, SK-OV-3
# [3] = test system: UWB1.289 cancer cell line; test: MTT assay, cytostatic/cytotoxic effects, UWB1.289
# [4] = test system: UWB1.289+BRCA1 cancer cell line; test: MTT assay, cytostatic/cytotoxic effects, UWB1.289+BRCA1
# [5] = time to tumor volume growth >20%
structure (smiles),measurement,setting,value
O=C(O)CCOc1ccc(N(CCCl)CCCl)cc1,Median Overall Survival (OS),[1]; from tumor inoculation (D0),49 days
same,Progression Free Survival (PFS),[1]; [5],0 days
same,Median Overall Survival (OS),[2]; from tumor inoculation (D0),57 days
same,MST (mean survival time),[2]; single i.p. dose on d-1,59.7 ± 3.3 days
same,T/C% (mean survival time of treated versus saline controls),[2]; single i.p. dose on d-1,118.3%
same,Progression Free Survival (PFS),[2]; [5],0 days
same,TGI (Total Growth Inhibition),"OVCAR-3 cancer cell line; OVCAR-3, 48 h treatment",92 ± 7.5 μΜ
same,GI50,"OVCAR-3 cancer cell line; read-out: GI50 (50% Growth Inhibition), OVCAR-3, 48 h treatment",56 µM
same,IC50,"OVCAR-3 cancer cell line; read-out: IC50 (cytotoxic effect), OVCAR-3, 48 h treatment",> 100 µM
same,TGI (Total Growth Inhibition),"OVCAR-5 cancer cell line; OVCAR-5, 48 h treatment",87 ± 7.8 μΜ
same,GI50,"OVCAR-5 cancer cell line; read-out: GI50 (50% Growth Inhibition), OVCAR-5, 48 h treatment",52 µM
same,IC50,"OVCAR-5 cancer cell line; read-out: IC50 (cytotoxic effect), OVCAR-5, 48 h treatment",> 100 µM
same,TGI (Total Growth Inhibition),"SK-OV-3 cancer cell line; SK-OV-3, 48 h treatment",>100 μΜ
same,GI50,"SK-OV-3 cancer cell line; read-out: GI50 (50% Growth Inhibition), SK-OV-3, 48 h treatment",50 µM
same,IC50,"SK-OV-3 cancer cell line; read-out: IC50 (cytotoxic effect), SK-OV-3, 48 h treatment",> 100 µM
same,TGI (Total Growth Inhibition),"[3]; UWB1.289, 48 h treatment",86 ± 7.4 μΜ
same,GI50,"[3]; read-out: GI50 (50% Growth Inhibition), UWB1.289, 48 h treatment",22 µM
same,IC50,"[3]; read-out: IC50 (cytotoxic effect), UWB1.289, 48 h treatment",> 100 µM
same,TGI (Total Growth Inhibition),"[4]; UWB1.289+BRCA1, 48 h treatment",>100 μΜ
same,GI50,"[4]; read-out: GI50 (50% Growth Inhibition), UWB1.289+BRCA1, 48 h treatment",> 100 µM
same,IC50,"[4]; read-out: IC50 (cytotoxic effect), UWB1.289+BRCA1, 48 h treatment",> 100 µM

# From article PMC7281072 (Cancers, 2020)
